pIC50: −log10 of the molar value.

For one assay, the target named is cyclin A (human) (UniProt P20248). Description: competitive cyclin A binding assay.
The target of assay [1] is CDK2/cyclin A complex (human) (UniProt P24941). Description: cell-based or functional assay.

The substance “H-Cit-Cit-Leu-Ala-(p-F-Phe)-NH2 (peptide)” showed a negative logarithm of the IC50 (pIC50) with cyclin A (human) of 4.10.
On to “H-Cit-Cit-Leu-Ile-(p-F-Phe)-NH2 (peptide)”, for which the CDK2/cyclin A kinase activity IC50 in assay [1] worked out at 37 µM.

These data come from patent US20050260730A1, “CDK2/cyclin A crystals and uses thereof” (priority 2003, published 2005).
